Key:
[1] = system: double-channel consisting of a single (M113R)7(T145R)7 pore and a single (M113F)7(T145F)7(K147N)7 protein; conditions: single component present, -40 mV, combined open channel current -51.0 pA, FIG. 9b
[2] = biological target: (M113F)7(T145F)7(K147N)7 αHL protein pore (Staphylococcus aureus, UniProt P09616, K173N/M139F/T171F)

cyclo(P-G)3 was tested, and the “mean residual current of current blockage events” value [1] was −31.3 pA and the “mean residual current of events” value ([2]; single (M113F)7(T145F)7(K147N)7 pore (sensor 2 of FIG. 8), -40 mV, 10 μM cyclo(P-G)3, open channel current -28.3 pA) was −6.4 pA.
With Y-G-R-K-K-R-R-Q-R-R-R the “signal (current blocking events) in sensor 1” value ([2]; sensor 1 of four-pore array = (M113F)7(T145F)7(K147N)7 pore) was “very weak response”.
Y-Y-Y-Y-Y-Y gave a dwell time ([2]; in (M113F)7(T145F)7(K147N)7, 1 M NaCl, 10 mM Tris.HCl pH 7.5, FIG. 6) of 7333.6 ms.
